{
  "source": "patent US20250057961A1",
  "about": "“BLOOD-BRAIN BARRIER PENETRATING DRUG DELIVERY SYSTEM USING SIALYLLACTOSE” (GENECHEM INC., priority 2021, published 2025)",
  "assay": "Brain tissue penetration and substance dissociation (LC-MS/MS of tissue homogenate supernatant)",
  "conditions": "administered intravenously",
  "method": "To examine the distribution and dissociation of sialyllactose-conjugated methotrexate in tissues, GCB017 was administered and the presence of GCB017 and its dissociates (linker-6′SL (L-6′SL) and linker) in the brain and pancreas was checked. Specifically, GCB017 was dissolved and diluted in 10% DMSO, thus preparing a sample (final DMSO concentration was approximately 2% of the total volume). The sample was administered intravenously (IV) at a dose of 80 mg/kg or administered orally (PO) at a dose of 80 mg/kg. Then, at different time points (0, 0.5, 2, and 4 hours), the animals were anesthetized, heart blood was collected, saline solution was perfused, and the brain and pancreas were extracted. Each of the extracted tissues was homogenized in 50 mM Tris-HCl buffer (pH 7.5) at a ratio of 1:5 and centrifuged at 3,000 rpm and 4° C. for 20 minutes, and the supernatant was collected and subjected to mass spectrometry (SCIEX Triple Quad 3500 LC-MS/MS system).\nThe sample was administered intravenously (IV) at a dose of 80 mg/kg or administered orally (PO) at a dose of 246 mg/kg. Then, at different time points (0, 0.5, 2, and 4 hours), the animals were anesthetized, heart blood was collected, saline solution was perfused, and the brain and pancreas were extracted. […]",
  "data": [
    {"substance": "gemcitabine-succinate-aminohexyl-6′SL [GCB034]", "values": [
      {"measurement": "presence of GCB034 and its dissociates in tissues", "value": "detected in the brain and pancreas"}
    ]}
  ]
}
